# Assay results as given in patent US6569863B1, “Bicyclic heteroamatic compounds useful as LH agonists” (Akzo Nobel NV, priority 1999, dated 2003).
# Tested on: immature female mice
# Test: In vivo ovulation induction assay for LH bioactivity in immature female mice
# Parameters: species or system mouse
# Settings: 20 IU/kg s.c., FSH-primed immature female mice, 24 h after administration
# Excerpt: In female immature mice which are stimulated with follicle stimulating hormone (FSH), ovulation can be induced by luteininzing hormone (LH) or by human chorionic gonadotrophin (hCG) which binds to the same LH-receptor on the Graafian follicles. Binding to the LH-receptor initiates a biochemical cascade, which eventually results in follicular rupture and extrusion of a mature oocyte. To measure the in vivo activity of LH-agonistic compounds, inunature 20 days old mice (B6D2F1 stain, Broekman Institute, the Netherlands) are primed with unary FSH (Humegon; 12.5 IU/l, 0.1 ml s.c.) to initiate folliculogenesis. Forty-eight hours after FSH treatment test compound, reference compound or vehicle (10% cremophor solution) are administered to the animals. Test compounds (50 mg/kg in 0.1 ml) and vehicle (0.1 ml) are administered p.o., reference compounds (500 IU/kg hCG in 0.1 ml) are injected s.c. As a reference, hCG in-house standards are used which are calibrated against International Reference preparations of human hCG provided by the National Institute for Biological Standards and Controls (NMSC, London, UK). Twenty-four hours after administration of test compound, reference compound or vehicle, animals are killed by cervical dislocation. The oviducts are dissected and collected in 0.9% NaCl. […]
substance,measurement,value
"Urinary hCG: human chorionic gonadotrophin, reference compound; in-house standards calibrated against International Reference preparations of human hCG",Mouse in vivo ovulation induction (% ovulating animals),100%
